# Publication PMC6525071 (Cell chemical biology, 2019)
# Experiments:
# [1] = test system: SUDHL6 subcutaneous xenografts; test: IKE efficacy study, tumor volume; assay type: in vivo, mouse; conditions: starting from day 9 of treatment
# [2] = acidic versus neutral aqueous conditions
# [3] = ref Larraufie et al., 2015; cited from earlier work
compound,measurement,setting,value
"CC(C)Oc1ccc(C(=O)Cn2ccnc2)cc1-n1c(CN2CCN(C(=O)COc3ccc(Cl)cc3)CC2)nc2ccccc2c1=O [IKE, imidazole ketone erastin]",tumor growth (fold change of tumor volume vs day 0),[1]; 23 mg/kg IKE IP once daily,significant decrease in tumor growth
same,tumor growth (fold change of tumor volume vs day 0),[1]; 40 mg/kg IKE IP once daily,significant decrease in tumor growth
same,aqueous solubility,[2],"soluble in acidic aqueous conditions, but not to the same degree in neutral aqueous conditions"
same,water solubility,[3],intermediate
